# Measurements published in patent US6855843B2, “Inhibitors of α4 mediated cell adhesion” (Tanabe Seiyaku Co., Ltd., priority 1998, dated 2005).
# Sequences of proteins named here, by UniProt entry; tags and fusion partners are left off. Residues count along the entry.
# UniProt P13612, 34-1032 limits assumed: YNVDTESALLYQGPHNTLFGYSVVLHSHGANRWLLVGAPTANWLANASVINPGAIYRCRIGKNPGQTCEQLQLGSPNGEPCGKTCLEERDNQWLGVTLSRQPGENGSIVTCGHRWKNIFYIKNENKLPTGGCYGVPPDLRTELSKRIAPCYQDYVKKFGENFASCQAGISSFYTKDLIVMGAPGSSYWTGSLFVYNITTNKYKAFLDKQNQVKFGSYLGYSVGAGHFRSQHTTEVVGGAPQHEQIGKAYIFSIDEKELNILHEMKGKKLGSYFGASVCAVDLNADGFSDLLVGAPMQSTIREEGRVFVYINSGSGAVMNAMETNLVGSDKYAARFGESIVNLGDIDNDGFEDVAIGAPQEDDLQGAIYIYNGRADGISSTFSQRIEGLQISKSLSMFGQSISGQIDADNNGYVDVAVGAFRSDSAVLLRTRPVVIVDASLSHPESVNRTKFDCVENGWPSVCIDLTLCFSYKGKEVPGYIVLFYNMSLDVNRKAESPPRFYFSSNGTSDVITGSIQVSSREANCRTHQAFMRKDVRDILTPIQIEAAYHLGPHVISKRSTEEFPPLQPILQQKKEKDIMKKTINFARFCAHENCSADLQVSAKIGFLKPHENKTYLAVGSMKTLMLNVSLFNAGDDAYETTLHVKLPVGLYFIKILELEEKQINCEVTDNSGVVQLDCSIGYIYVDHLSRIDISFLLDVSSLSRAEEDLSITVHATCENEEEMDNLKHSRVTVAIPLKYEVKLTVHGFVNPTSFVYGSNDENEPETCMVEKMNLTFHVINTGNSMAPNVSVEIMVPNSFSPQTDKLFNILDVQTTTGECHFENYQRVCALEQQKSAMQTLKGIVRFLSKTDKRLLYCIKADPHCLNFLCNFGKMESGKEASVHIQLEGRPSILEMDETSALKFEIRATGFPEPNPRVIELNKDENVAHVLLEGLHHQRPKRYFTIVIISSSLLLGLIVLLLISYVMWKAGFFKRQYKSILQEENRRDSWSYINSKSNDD
# UniProt P26010, 20-798 limits assumed: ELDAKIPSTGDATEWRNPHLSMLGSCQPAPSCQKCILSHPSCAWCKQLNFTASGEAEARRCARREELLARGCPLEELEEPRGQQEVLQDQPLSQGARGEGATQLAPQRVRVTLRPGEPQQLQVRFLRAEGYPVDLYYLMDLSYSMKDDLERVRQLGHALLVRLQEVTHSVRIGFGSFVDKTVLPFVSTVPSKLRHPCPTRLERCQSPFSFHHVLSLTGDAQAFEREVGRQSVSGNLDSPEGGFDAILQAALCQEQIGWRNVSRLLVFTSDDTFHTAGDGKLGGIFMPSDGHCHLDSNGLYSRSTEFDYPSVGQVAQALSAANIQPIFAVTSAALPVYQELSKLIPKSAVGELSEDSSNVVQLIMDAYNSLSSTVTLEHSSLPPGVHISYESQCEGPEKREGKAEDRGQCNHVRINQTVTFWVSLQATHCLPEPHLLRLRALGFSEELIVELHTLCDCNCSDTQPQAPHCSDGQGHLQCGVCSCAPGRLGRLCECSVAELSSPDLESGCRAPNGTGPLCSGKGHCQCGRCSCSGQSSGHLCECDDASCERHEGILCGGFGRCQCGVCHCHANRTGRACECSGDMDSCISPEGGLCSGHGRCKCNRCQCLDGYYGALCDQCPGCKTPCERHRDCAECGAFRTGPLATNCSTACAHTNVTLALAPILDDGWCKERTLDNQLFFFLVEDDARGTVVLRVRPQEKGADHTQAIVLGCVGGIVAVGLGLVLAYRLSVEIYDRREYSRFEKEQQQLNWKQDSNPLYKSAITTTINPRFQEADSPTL
# Target: α4β7 (adhesion of RPMI cells to CS-1) (Homo sapiens, UniProt P13612+P26010)
# Test: RPMI-CS-1 cell adhesion assay
# Format: cell-based
# Conditions: read-out: RPMI-CS-1 IC50 value range; adhesion of RPMI B-cell line (expresses α4β7) to CS-1 peptide coated microwells
row,IC50,SMILES
1,< 300 nM,COc1cccc(OC)c1-c1ccc(C[C@H](NC(=O)c2c(Cl)cc(-c3ccsc3)cc2Cl)C(=O)O)cc1
2,< 300 nM,"COc1cccc(OC)c1-c1ccc(C[C@H](NC(=O)c2c(Cl)cc(-c3cscn3)cc2Cl)C(=O)O)cc1 [Example 307, N-[4-(1,3-Thiazol-4-yl)-2,6-dichlorobenzoyl]-4-(2,6-dimethoxyphenyl)-L-phenylalanine]"
